Experiments:
[1] = molecular target: 5-hydroxytryptamine receptor 2A (Rattus norvegicus, UniProt P14842)
[2] = molecular target: T1, 5-hydroxytryptamine receptor 2C (Rattus norvegicus, UniProt P08909)
T1 sequence (P08909 whole entry): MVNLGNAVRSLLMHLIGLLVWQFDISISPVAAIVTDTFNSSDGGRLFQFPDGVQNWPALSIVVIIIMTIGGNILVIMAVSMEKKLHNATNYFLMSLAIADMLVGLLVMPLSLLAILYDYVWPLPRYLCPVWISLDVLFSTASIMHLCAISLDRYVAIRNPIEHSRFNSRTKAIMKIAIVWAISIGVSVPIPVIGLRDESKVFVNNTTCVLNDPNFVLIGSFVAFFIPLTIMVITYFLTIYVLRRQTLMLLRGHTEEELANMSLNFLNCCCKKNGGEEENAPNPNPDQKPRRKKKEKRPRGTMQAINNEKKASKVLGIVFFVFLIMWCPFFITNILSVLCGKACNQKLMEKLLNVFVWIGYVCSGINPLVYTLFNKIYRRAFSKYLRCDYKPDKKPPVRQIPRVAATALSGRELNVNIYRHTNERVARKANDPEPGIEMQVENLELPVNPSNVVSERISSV

Amino acid sequences for entries named in this document (tags omitted).
UniProt P14842, whole entry: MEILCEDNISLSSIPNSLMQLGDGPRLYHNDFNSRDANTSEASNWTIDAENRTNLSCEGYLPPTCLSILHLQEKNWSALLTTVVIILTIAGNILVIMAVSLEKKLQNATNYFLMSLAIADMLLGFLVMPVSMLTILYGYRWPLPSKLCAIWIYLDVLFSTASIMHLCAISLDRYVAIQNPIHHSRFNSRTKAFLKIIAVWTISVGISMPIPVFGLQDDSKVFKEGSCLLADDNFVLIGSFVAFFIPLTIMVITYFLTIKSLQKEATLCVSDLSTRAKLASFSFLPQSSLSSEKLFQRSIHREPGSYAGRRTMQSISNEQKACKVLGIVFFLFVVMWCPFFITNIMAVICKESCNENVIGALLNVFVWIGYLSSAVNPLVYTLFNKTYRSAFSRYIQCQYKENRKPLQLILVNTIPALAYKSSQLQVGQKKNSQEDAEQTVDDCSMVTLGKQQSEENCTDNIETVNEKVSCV

SMILES	Ki [1] [nM]	Ki [2] [nM]
O=C(CCCN1CCC2(CC1)C(=O)NCN2c1ccccc1)c1ccc(F)cc1 [8-[4-(4-fluorophenyl)-4-oxidanylidene-butyl]-1-phenyl-1,3,8-triazaspiro[4.5]decan-4-one]	0.4	957
CN1CCN(C2=Nc3ccccc3Oc3ccc(Cl)cc32)CC1 [13-chloro-10-(4-methylpiperazin-1-yl)-2-oxa-9-azatricyclo[9.4.0.0^{3,8}]pentadeca-1(11),3,5,7,9,12,14-heptaene]	2	

— BindingDB's records for PubMed 1347569 (Stanford University, 1992)
